{
  "sequences": {"note": "Amino acid sequences for entries named in this document (tags omitted). Chains listed by the source or under a name are the forms on record and can include a tag or linker.", "UniProt Q15858, other isoform, or with tags, fused parts or gaps": "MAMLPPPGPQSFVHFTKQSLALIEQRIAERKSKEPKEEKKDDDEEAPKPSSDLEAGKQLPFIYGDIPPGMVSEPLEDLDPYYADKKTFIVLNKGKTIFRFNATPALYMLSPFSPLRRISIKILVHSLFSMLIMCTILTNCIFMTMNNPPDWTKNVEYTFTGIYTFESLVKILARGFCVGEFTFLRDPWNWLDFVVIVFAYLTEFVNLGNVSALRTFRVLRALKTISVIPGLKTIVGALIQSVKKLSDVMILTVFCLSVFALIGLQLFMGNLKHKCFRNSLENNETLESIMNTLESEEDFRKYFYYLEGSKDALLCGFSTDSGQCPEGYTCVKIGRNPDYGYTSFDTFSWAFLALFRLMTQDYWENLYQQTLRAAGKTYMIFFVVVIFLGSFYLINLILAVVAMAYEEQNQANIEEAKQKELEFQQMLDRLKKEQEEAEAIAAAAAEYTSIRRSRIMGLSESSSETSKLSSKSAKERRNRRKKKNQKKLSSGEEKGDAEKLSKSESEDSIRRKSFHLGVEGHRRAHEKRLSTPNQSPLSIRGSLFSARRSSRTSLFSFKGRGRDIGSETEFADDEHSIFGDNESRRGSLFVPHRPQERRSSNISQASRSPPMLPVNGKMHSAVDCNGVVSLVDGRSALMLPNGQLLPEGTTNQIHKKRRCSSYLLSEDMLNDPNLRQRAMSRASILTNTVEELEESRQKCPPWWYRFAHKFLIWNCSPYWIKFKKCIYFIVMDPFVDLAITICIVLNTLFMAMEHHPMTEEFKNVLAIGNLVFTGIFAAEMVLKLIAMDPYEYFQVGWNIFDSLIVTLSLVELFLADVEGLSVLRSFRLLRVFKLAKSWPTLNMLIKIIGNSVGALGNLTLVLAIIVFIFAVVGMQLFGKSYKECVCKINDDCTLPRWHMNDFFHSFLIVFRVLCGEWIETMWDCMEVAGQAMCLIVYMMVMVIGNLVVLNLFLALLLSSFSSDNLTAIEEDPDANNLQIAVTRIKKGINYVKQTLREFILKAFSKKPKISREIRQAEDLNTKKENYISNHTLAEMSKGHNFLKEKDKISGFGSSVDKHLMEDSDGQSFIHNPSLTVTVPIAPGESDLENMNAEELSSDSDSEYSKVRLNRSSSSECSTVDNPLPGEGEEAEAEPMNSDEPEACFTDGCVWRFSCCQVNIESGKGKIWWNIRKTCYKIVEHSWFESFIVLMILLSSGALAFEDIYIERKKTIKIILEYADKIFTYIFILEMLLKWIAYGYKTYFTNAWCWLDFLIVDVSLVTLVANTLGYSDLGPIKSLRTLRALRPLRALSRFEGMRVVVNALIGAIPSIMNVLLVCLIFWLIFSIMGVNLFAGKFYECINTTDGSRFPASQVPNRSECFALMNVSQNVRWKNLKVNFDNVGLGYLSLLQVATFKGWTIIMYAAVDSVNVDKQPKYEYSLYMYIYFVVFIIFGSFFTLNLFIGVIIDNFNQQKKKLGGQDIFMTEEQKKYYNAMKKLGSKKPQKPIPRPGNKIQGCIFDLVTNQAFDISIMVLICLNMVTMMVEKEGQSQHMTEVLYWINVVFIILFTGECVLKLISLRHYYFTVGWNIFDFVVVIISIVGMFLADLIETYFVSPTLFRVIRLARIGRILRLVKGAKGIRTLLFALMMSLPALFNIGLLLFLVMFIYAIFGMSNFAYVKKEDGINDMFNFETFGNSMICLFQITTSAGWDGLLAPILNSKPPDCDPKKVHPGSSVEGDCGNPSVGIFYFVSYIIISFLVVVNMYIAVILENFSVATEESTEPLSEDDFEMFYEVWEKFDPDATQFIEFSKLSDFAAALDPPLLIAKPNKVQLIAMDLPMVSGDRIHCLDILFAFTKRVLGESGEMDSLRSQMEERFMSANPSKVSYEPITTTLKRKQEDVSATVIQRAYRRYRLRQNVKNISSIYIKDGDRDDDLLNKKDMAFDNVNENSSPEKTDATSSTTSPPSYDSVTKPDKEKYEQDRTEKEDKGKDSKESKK"},
  "source": "patent US9765029B2",
  "about": "“Pyridine compounds as sodium channel blockers” (Purdue Pharma L.P., priority 2010, dated 2017)",
  "target": "human Nav1.7 (Homo sapiens (Human), UniProt Q15858)",
  "test": "FLIPR or FLIPR TETRA sodium dye assay with KCl and test article pre-incubation",
  "type": "cell-based",
  "details": "read-out: Nav1.7 IC50 (μM) ± SEM",
  "protocol": "In vitro assays were performed in a recombinant cell line expressing cDNA encoding the alpha subunit (Nav1.7, SCN9a, PN1, NE) of human Nav1.7 (Accession No. NM_002977). The cell line was provided by investigators at Yale University (Cummins et al, J. Neurosci. 18(23): 9607-9619 (1998)). For dominant selection of the Nav1.7-expressing clones, the expression plasmid co-expressed the neomycin resistance gene. The cell line was constructed in the human embryonic kidney cell line, HEK293, under the influence of the CMV major late promoter, and stable clones were selected using limiting dilution cloning and antibiotic selection using the neomycin analogue, G418. Recombinant beta and gamma subunits were not introduced into this cell line. […]\nThe fluorescence indicator used in the primary fluorescence assay was the cell permeant version of CoroNa™ Green (Invitrogen, Molecular Probes, Eugene, Oreg.), a dye that emits light in the fluorescence range (Harootunian et al., J. Biol. Chem. 264(32):19458-19467 (1989)). […] Cells expressing Nav1.7 or other sodium channels were loaded with the CoroNa™ Green dye immediately in advance of the fluorescence assay, and then, after agonist stimulation, the mobilization of Na^+ ions was detected as the Na^+ions flowed from the extracellular fluid into the cytoplasm through the activated sodium channel pores. […]",
  "data": [
    {"substance": "6-(4-(4-fluorophenoxyl)phenyl)-N-(2-(pyridine-3-sulfonamido)ethyl) picolinamide [Compound 22]", "values": [
      {"measurement": "IC50", "value": "0.31 ± 0.03", "unit": "µM"}
    ]}
  ]
}
